Paper PMC7826790, “Glucose 6-Phosphate Dehydrogenase from Trypanosomes: Selectivity for Steroids and Chemical Validation in Bloodstream Trypanosoma brucei” (Molecules, 2021)
“And” between values parts separate entries of the source, which are not always exact repeats. Identical values can stand only once.

By UniProt entry, the sequences of proteins in these tests, tags left out.
UniProt Q4E0B2, entry or part of it: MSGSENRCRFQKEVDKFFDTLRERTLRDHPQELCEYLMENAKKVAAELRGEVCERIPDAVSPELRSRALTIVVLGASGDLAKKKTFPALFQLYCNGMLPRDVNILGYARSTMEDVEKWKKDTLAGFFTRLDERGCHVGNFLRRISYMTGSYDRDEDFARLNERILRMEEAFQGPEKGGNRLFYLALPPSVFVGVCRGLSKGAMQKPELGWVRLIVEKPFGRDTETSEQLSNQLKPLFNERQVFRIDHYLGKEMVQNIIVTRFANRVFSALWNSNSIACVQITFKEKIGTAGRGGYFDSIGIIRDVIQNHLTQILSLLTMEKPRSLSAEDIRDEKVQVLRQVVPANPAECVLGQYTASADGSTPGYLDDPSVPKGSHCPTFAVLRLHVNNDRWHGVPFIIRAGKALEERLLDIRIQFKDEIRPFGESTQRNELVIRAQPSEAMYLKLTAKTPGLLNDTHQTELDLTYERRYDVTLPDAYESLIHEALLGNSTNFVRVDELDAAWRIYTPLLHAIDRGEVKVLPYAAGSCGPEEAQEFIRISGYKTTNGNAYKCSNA
UniProt P11413, whole entry: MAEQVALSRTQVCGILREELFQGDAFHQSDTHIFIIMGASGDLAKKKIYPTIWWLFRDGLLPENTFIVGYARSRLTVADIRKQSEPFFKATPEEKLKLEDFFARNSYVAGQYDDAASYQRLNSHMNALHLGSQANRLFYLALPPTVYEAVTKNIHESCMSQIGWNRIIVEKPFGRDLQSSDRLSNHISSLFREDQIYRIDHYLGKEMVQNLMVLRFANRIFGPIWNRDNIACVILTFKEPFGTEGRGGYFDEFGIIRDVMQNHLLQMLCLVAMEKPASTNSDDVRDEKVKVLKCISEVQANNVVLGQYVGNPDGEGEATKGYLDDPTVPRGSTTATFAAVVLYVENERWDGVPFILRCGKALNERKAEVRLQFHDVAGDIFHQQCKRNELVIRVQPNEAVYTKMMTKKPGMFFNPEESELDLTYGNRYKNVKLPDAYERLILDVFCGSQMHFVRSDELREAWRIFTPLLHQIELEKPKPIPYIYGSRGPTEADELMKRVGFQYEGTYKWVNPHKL

Experiments:
[1] = tested on: Bloodstream T. b. brucei (strain 427- cell line 514-1313); test: Cell viability of bloodstream T. b. brucei (bioluminescent assay); format: cell-based, Trypanosoma brucei brucei; conditions: DHEA: Hek293T CC50; Conessine: L6 CC50
Protocol: Parasite viability was performed as described in [72]. […] Thereafter, 200 µL from each well were transferred to a 96-well black plate and incubated with 20 µL of a solution containing: 1.5 mg/mL luciferin in PBS glucose 1% (w/v) and Triton X-100.

T. cruzi G6PDH = T. cruzi G6PDH (Trypanosoma cruzi, UniProt Q4E0B2); test: biochemical; format: biochemical; conditions: for fold less active against TcG6PDH than the α-Br analogue: 3-acetoxy derivatives, β-Br vs α-Br
Protocol: (§1) E. coli Tuner (DE3) cells were transformed with the pET28a (+) and pHis constructs encoding for N-terminally hexa histidine-tagged TcG6PDHL and HsG6PDH, respectively, and grown overnight in LB medium with […] and […], respectively. […] Thereafter, the cultures were incubated for 20 h at 25 °C and 170 rpm. Cells were harvested by centrifugation (5000× g, 10 min, 4 °C), resuspended in buffer A (50 mM Tris, pH of 8.0, 500 mM NaCl and 5 mM MgCl2) containing a complete™ Protease Inhibitor Cocktail prepared as indicated by the provider (Sigma-Aldrich-Merck, Germany); afterwards, we added 1 mg/mL of lysozyme and incubated the cells for 1 h at 4 °C. […] Protein concentration was determined from the absorbance values at 280 nm and the corresponding theoretical absorbance coefficients.
All reactions were performed in 50 mM Tris (pH 7.5) with 5 mM MgCl2 and 250 mM NaCl in a final volume of 500 µL. […] For each enzyme, a control reaction in the presence of 1% (v/v) DMSO was run. Stock and working solutions of compounds were prepared in 100% (v/v) DMSO. […] The initial velocities were calculated from the first 45 s of the reaction and normalized to the corresponding enzyme control. All measurements were performed at least in triplicate using a Cary 50 Bio spectrophotometer (Agilent Technologies, Santa Clara, CA, USA) at RT. The initial rates were determined with the Origin Pro 8.0 software (OriginLab Corporation, Northampton, MA, USA), and the IC50 values were calculated by nonlinear regression using the GraphPad Prism 5.0 software (GraphPad Inc., San Diego, CA, USA).

human G6PDH = target: T1, human G6PDH (Homo sapiens, UniProt P11413); test: G6PDH enzymatic assay, recombinant human G6PDH (NADPH formation at 340 nm); format: biochemical, H. sapiens
T1 construct: hexa-histidine (His6) (N); made in house; host or cells: E. coli Tuner (DE3), pHis vector
Protocol: as §1
G6PDH activity was determined at room temperature (RT) by monitoring NADPH (ε340 = 6220 M^−1 cm^−1) formation at 340 nm. […] The initial velocities were calculated from the first 45 s of the reaction and normalized to the corresponding enzyme control. […] The initial rates were determined with the Origin Pro 8.0 software (OriginLab Corporation, Northampton, MA, USA), and the IC50 values were calculated by nonlinear regression using the GraphPad Prism 5.0 software (GraphPad Inc., San Diego, CA, USA).

SMILES	Selectivity Index (CC50 for murine macrophages/EC50 for T. brucei) [1]	IC50 (T. cruzi G6PDH) [µM]	fold higher inhibitory activity against TcG6PDH compared to the parent molecule (EA or DHEA) (T. cruzi G6PDH) [fold]	fold less active against the human enzyme than the unmodified steroids (human G6PDH)	fold less active against TcG6PDH than the α-Br analogue (T. cruzi G6PDH) [fold]
C[C@]12CC[C@H](O)CC1=CC[C@@H]1[C@@H]2CC[C@]2(C)C(=O)[C@H](Br)C[C@@H]12 [Compound 4]	2.5	3.3 ± 0.7	7	2- to 4 fold	–
CC(=O)O[C@H]1CC[C@@]2(C)C(=CC[C@@H]3[C@@H]2CC[C@]2(C)C(=O)[C@@H](Br)C[C@@H]32)C1 [Compound 6]	0.9	–	–	–	> 600
C[C@]12CC[C@H](O)CC1=CC[C@@H]1[C@@H]2CC[C@]2(C)C(=O)CC[C@@H]12 [DHEA, dehydroepiandrosterone]	0.6	–	–	–	–
CC(=O)O[C@H]1CC[C@@]2(C)C(=CC[C@@H]3[C@@H]2CC[C@]2(C)C(=O)[C@H](Br)C[C@@H]32)C1 [Compound 5]	2.2	–	–	–	–
CC(=O)O[C@H]1CC[C@@]2(C)[C@@H](CC[C@@H]3[C@@H]2CC[C@]2(C)C(=O)[C@H](Br)C[C@@H]32)C1 [Compound 2]	8 and 7.9	–	–	–	–
C[C@]12CC[C@H](O)CC1=CC[C@@H]1[C@@H]2CC[C@]2(C)C(=O)C(O)C[C@@H]12 (stereo partly shown) [Compound 7]	–	> 50	–	–	–
C[C@]12CC[C@H](O)C[C@@H]1CC[C@@H]1[C@@H]2CC[C@]2(C)C(=O)[C@H](Br)C[C@@H]12 [Compound 1, 16α-bromo-epiandrosterone]	4.6	0.053 ± 0.002	56	2- to 4 fold	–
CC(=O)O[C@H]1CC[C@@]2(C)[C@@H](CC[C@@H]3[C@@H]2CC[C@]2(C)C(=O)[C@@H](Br)C[C@@H]32)C1 [Compound 3]	0.2	–	–	–	13
